For one molecule, Kd results are on record in patent publication US11046709B2, “Fused 1,4-diazepines as BET bromodomain inhibitors” (THE REGENTS OF THE UNIVERSITY OF MICHIGAN, priority 2017, dated 2021).

The experiment deals with recombinant BRD4 BD2 (Homo sapiens, UniProt O60885). The experiment can be described thus: FP protein saturation experiment of the fluorescent probe, BRD4 BD2. To be noted: read-out: Kd of the fluorescent probe to BRD4 BD2, probe 1.5 nM. On the procedure:
Fluorescence Polarization (FP) competitive binding studies were carried out using a FAM labeled fluorescent probe, see, e.g., Cpd. No. 350 of US 2014/0256706, to determine binding affinities of representative Compounds of the Disclosure for recombinant BRD4 BD1 and BRD4 BD2 proteins. Equilibrium dissociation constants (Kd) values of the fluorescent probe to BRD4 BD1 and BD2 proteins were determined from protein saturation experiments by monitoring the total fluorescence polarization of mixtures composed with the fluorescent probe at a fixed concentration and proteins with increasing concentrations up to full saturation. Serial dilutions of testing proteins were mixed with the fluorescent probe to a final volume of 200 μl in the assay buffer (100 mM phosphate buffer, pH=6.5, 0.01% Triton X-100 (Sigma, 282103) being added right before assays). Final fluorescent probe concentration was 1.5 nM for both proteins. Plates were incubated at room temperature for 30 minutes with gentle shaking to assure equilibrium. FP values in millipolarization units (mP) were measured using the Infinite M-1000 plate reader (Tecan U.S., Research Triangle Park, N.C.) in Microfluor 1 96-well, black, round-bottom plates (Thermo Scientific, Waltham, Mass.) at an excitation wavelength of 485 nm and an emission wavelength of 530 nm. […]

One may read the Kd as the concentration at which binding is half-saturated. As to `COc1cc2c(cc1-c1c(C)noc1C)[nH]c1nc(C(=O)NC3CCN(CCCNC(=O)c4ccc(-c5c6ccc(=O)cc-6oc6cc(O)ccc56)c(C(=O)O)c4)CC3)nc(-c3ccnc4ccc(F)cc34)c12`, the Kd was found to be 3 nM.
